Only some compounds are listed: those with a hit (about 13% of all), similar ones and a draw of the others.
KDM4E inh: inhibitors of human JMJD2E histone demethylase; B2RXH2; JMJD2E catalytic domain, FDH-coupled NADH fluorescence (FDH is formaldehyde dehydrogenase); Potency, µM (titrated, usually from 57.1 µM), for inactives: top-dose activity change, negative = inhibition, most hits filed as inhibitors; 1.6% of 230,000 active; AID 2147; active = well fitted inhibition curve with a large enough effect, not every such curve was filed as active; inconclusive = small, poorly fitted or top-dose-only effect, or another doubt; inactive = no such curve, though single readings can be large or run the other way;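 also: potency is read from the fitted curve at half-maximal effect; 0% = wells with enzyme and -100% = buffer wells without enzyme; nearly all actives have a fitted effect of over 50% in size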
miR-21 reporter: miR-21 reporter, rising signal; HeLa miR-21 FLuc reporter, luciferase, 48 h; Potency, µM (doses to about 38.3 µM), for inactives: at the highest dose reporter change, positive = more light; 340,000 tested, under 10 active; AID 2288; active = well fitted rising curve with a large enough effect; inconclusive = small, poorly fitted or top-dose-only effect; inactive = no such curve, though single readings can be large or run the other way;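 further: % of control where 0% means no effect; miR-21 action dims this reporter so a rising signal means less miR-21 action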
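HeLa cells endogenously expressing miR-21, stably carrying CMV-driven firefly luciferase with a downstream miR-21 binding site, 2000 cells/well. Titrations up to approximately 40 uM, 48 hours; luciferase luminescence read.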
ALDH1A1 inh: blocks purified human ALDH1A1 activity. Purified ALDH1A1, NADH fluorescence, propionaldehyde substrate. Potency, µM (doses to about 75.3 µM), for inactives: at the highest dose activity, negative = inhibition, hits mostly inhibitors. 7.3% of 220,000 active. AID 1030; active = well fitted inhibition curve with a large enough effect, not every such curve was filed as active; inconclusive = small, poorly fitted or top-dose-only effect, or another doubt; inactive = no such curve, though single readings can be large or run the other way;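 also: potency is read from the fitted curve at half-maximal effect; plate controls were no enzyme wells and a reference inhibitor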
Sfp inh: Sfp phosphopantetheinyl transferase inhibition | Q9F4F7 | Biochemical Sfp PPTase activity, qHTS | Potency, µM, inactives show max response, negative = inhibition, usual class: inhibitors | actives 3.5% (n = 310,000) | AID 1490; active = well fitted inhibition curve with a large enough effect; inconclusive = small, poorly fitted or top-dose-only effect, or another doubt; inactive = no such curve, though single readings can be large or run the other way;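 also: the enzyme is Sfp with the accession as filed and its product quenches rhodamine fluorescence; potency is read from the fitted curve at half-maximal effect; 0% = enzyme reaction without inhibitor and -100% = no enzyme wells; top concentration of the series not given in the record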
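Sfp 15 nM + cpd, 15 min RT; start w/ rhodamine-CoA 5 uM, BHQ-2-YbbR 12.5 uM (final); 50 mM Hepes pH 7.6, 10 mM MgCl2, 0.01% NP-40, 0.01% BSA; read 525/598 nm at 0 and 30 min.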
LMNA splice mod: modulators of lamin A splicing; Potency, µM (highest dose often 46.1 µM), inactives show top-dose ratio change, negative = inhibition, actives largely listed as inhibitors; 0.01% of 200,000 active; HeLa LMNA splicing GFP/RFP minigene ratio, 48 h; active = well fitted inhibition curve with a large enough effect in the signal ratio, with a control signal flat, not every such curve was filed as active; inconclusive = small, poorly fitted or top-dose-only effect, or effect the other way, or a change in a side signal; the % refers to the signal ratio; also: potency is read from the fitted curve at half-maximal effect; % is scaled to controls: 0 for no effect and ±100 for the full control effect
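S3 HeLa stable clones carrying a lamin A-EGFP splicing minigene plus DsRed2 were seeded at 600 cells/well in Opti-MEM with 2% FBS, pin-dosed and incubated 48 h at 37°C. Acumen cytometry (488 nm) gave the GFP/RFP total-intensity ratio.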
G9a block: blocks human histone lysine methyltransferase G9a | Q96KQ7 | G9a H3K9 monomethylation, AlphaScreen, 2 h | Potency, µM (doses to about 102 µM), without a hit: top-dose activity, negative = inhibition, most hits filed as inhibitors | 8.8% of 350,000 active | AID 504332; also: potency is read from the fitted curve at half-maximal effect; % is scaled to controls: 0 for no effect and ±100 for the full control effect; nearly all actives have a fitted effect of over 75% in size
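Readings reflect AlphaScreen signal from monomethyl-H3K9 antibody detection. HMT at 20 nM; substrate b-H3K9 500 nM; cofactor SAM 20 uM; 2 h RT reaction; compounds tested as titrations in qHTS with 15 min preincubation.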
Numbers without * were called inactive; u = inconclusive; x = not tested or not shown; [ ] = remark or other dose. Unless noted, calls follow the shape of the dose curve; as a rule, active = well fitted curve in the direction sought with a large enough effect; inconclusive = small, poorly fitted or top-dose-only effect, or another doubt; inactive = no such curve, though single readings can be large; an effect the other way counts as inactive or inconclusive.

| canonical_smiles | KDM4E inh | miR-21 reporter | ALDH1A1 inh | Sfp inh | LMNA splice mod | G9a block |
| --- | --- | --- | --- | --- | --- | --- |
| COc1cccc(CN(c2ccc3c(c2)CCC3)S(=O)(=O)c2ccc(-n3cnnn3)c(OC)c2)c1 | -27.4% | -5.7% | 2.51µM* | -3.2% | u | 4.1%[59 µM] |
| COc1cccc(CN(CC2CCCO2)S(=O)(=O)c2ccc(-n3cnnn3)c(OC)c2)c1 (stereo unspecified) | 10.8% | -2.8% | u | 9.8% | x | 8.1% |
| COc1c(Cl)cnn(-c2ccc(C)cc2)c1=O | 4.0% | 7.4% | u | 6.0% | 8.1% | -35.1%[12.7 µM] |
| O=c1c(Br)c(Br)cnn1-c1ccccc1 | 3.0% | u | 7.08µM* | 26.6% | u | 24.3%[12.7 µM] |
| O=c1c(Br)c(N2CCCC2)cnn1-c1ccccc1 | 2.7% | -64.2% | -5.4% | 3.7% | 16.1% | 4.0%[59 µM] |
| Cc1ccc(-n2ncc(Br)c(Br)c2=O)cc1 | 1.1% | u | 3.16µM* | 3.7% | x | -16.8% |
| Cc1cc(C)c(S(=O)(=O)OC[C@H]2C=CC[C@@H](CCC[C@H]3O[C@H](C(=O)OC(C)C)CC[C@@H]3C)O2)c(C)c1 | -1.0% | x | -14.0% | -8.3% | x | x |
| O=C(O)c1cc(=O)c2ccc(Cl)cc2[nH]1 | -3.5% | x | -2.3% | -29.1% | u | 15.6%[12.7 µM] |
| CC1Cc2nc(SCC(=O)N3CCN(c4ccccc4)CC3)n(C)c(=O)c2S1 (stereo unspecified) | 7.4% | 3.3% | -1.7% | 7.7% | u | u |
| CC1Cc2nc(SCC(=O)N3CCN(c4ccccc4)CC3)n(CCc3ccccc3)c(=O)c2S1 (stereo unspecified) | -2.3% | 19.3% | -8.3% | 44.7µM* | -13.0% | u |
| O=C(CSc1nc2c(c(=O)n1-c1ccccc1)SCC2)N1CCOCC1 | 6.6% | -4.1% | u | -6.4% | -12.2% | 21.3% |
| CCn1c(SCC(=O)NCc2ccccc2)nc2c(c1=O)SC(C)C2 (stereo unspecified) | -1.4% | -2.1% | -3.8% | 18.2% | -7.6% | -2.9%[59 µM] |

Carrying on.
| canonical_smiles | KDM4E inh | miR-21 reporter | ALDH1A1 inh | Sfp inh | LMNA splice mod | G9a block |
| --- | --- | --- | --- | --- | --- | --- |
| O=C(CSc1nc2c(c(=O)n1-c1ccccc1)SCC2)N1CCN(c2ccccc2)CC1 | -0.2% | -4.8% | u | -16.6% | -2.7% | 44.7µM* |
| CCn1c(SCC(=O)N2CCN(c3ccccc3)CC2)nc2c(c1=O)SC(C)C2 (stereo unspecified) | 7.1% | 1.3% | 2.24µM* | 13.8% | -15.7% | u |
| CCn1c(SCC(=O)NCc2ccco2)nc2c(c1=O)SC(C)C2 (stereo unspecified) | 2.1% | -9.6% | u | 39.8µM* | 8.4% | 14.1µM* |
| CCOC(=O)c1ccc2c(c1)N(CC(=O)Nc1ccc(CC)cc1)C(=O)c1ccccc1S2 | x | -2.4% | x | x | u | 5.5%[59 µM] |
| Cc1cccc(NC2=NCC(=O)N2Cc2ccccc2)c1 | -4.2% | -8.3% | 25.1µM* | 7.6% | -9.3% | u |
| Cc1cc(C)cc(NC2=NCC(=O)N2Cc2ccccc2)c1 | 0.9% | -1.4% | 0.6% | 2.8% | 15.3% | 18.0%[12.7 µM] |
| O=C1CCN=C(Nc2ccc(F)cc2)N1Cc1ccccc1 | -18.7% | -0.4% | u | -18.6% | 0.4% | 39.8µM* |
| CCc1ccccc1NC1=NCC(=O)N1Cc1ccccc1 | -10.8% | -4.8% | -5.0% | 2.5% | -1.2% | 44.7µM* |
| O=C1CN=C(Nc2ccccc2)N1Cc1cccs1 | -3.8% | -4.7% | 4.7% | 8.8% | 4.1% | 79.4µM* |
| CCN(C(=O)CSc1nnc(-c2cc3occc3n2C)n1-c1ccccc1C)c1ccccc1 | x | -5.8% | x | x | -10.4%[46 µM] | -16.8%[59 µM] |
| CC1CCCN(S(=O)(=O)c2ccc(NC(=O)C3CCN(C(=O)c4ccco4)CC3)cc2)C1 (stereo unspecified) | x | u | x | 8.1% | x | 16.0%[59 µM] |
| COc1ccc(-c2onc(C)c2C)cc1S(=O)(=O)N(C)Cc1ccco1 | x | -0.9% | x | x | x | -5.8%[59 µM] |

One compound at a time (already shown). Values in the order: KDM4E inh, miR-21 reporter, ALDH1A1 inh, Sfp inh, LMNA splice mod, G9a block
CC1CCCN(S(=O)(=O)c2ccc(NC(=O)C3CCN(C(=O)c4ccco4)CC3)cc2)C1 (stereo unspecified) as listed: x, u, x, 8.1%, x, 16.0%[59 µM]
Cc1cc(C)cc(NC2=NCC(=O)N2Cc2ccccc2)c1 as listed: 0.9%, -1.4%, 0.6%, 2.8%, 15.3%, 18.0%[12.7 µM]
Cc1cccc(NC2=NCC(=O)N2Cc2ccccc2)c1 as listed: -4.2%, -8.3%, 25.1µM*, 7.6%, -9.3%, u

Going on with the list:
| canonical_smiles | KDM4E inh | miR-21 reporter | ALDH1A1 inh | Sfp inh | LMNA splice mod | G9a block |
| --- | --- | --- | --- | --- | --- | --- |
| Cc1cccc(NC2=NCC(=O)N2Cc2cccs2)c1 | -29.4% | -6.6% | 0.0% | 8.9% | -6.2%[46 µM] | 70.8µM* |
| NC(C(=O)O)C(CC(=O)O)c1ccc(Cl)cc1 (stereo unspecified) | x | x | -0.4% | 50.1µM* | x | 25.7%[59 µM] |
| CCOC(=O)Cn1c(=O)n(CC2CCCO2)c2nc(-c3ccc(C(C)C)cc3)nc(C(N)=O)c21 (stereo unspecified) | x | 0.0% | x | x | u | -2.3%[59 µM] |
| COc1ccc(S(=O)(=O)N2CCOCC2)cc1NC(=O)CSc1nnc(N)s1 | x | x | x | x | x | 44.7µM* |
| COc1ccc(S(=O)(=O)N2CCOCC2)cc1OC | -3.3% | -14.4% | 2.3% | -1.1% | -4.8% | 1.4%[59 µM] |
| Cc1nnc(SCC(=O)Nc2cc(S(=O)(=O)N3CCOCC3)ccc2C)s1 | x | x | x | x | x | -48.2% |
| CCN(CC)c1ccc(S(=O)(=O)N2CCOCC2)cc1NC(=O)CSc1ccccc1 | x | x | x | x | x | -29.9% |
| COc1ccc(S(=O)(=O)N2CCOCC2)cc1N=Nc1sc(N)nc1-c1ccccc1 | 2.8% | -3.9% | -2.9% | -2.9% | -8.0% | 14.1µM* |
| Cc1ccc(S(=O)(=O)N2CCOCC2)cc1NC(=O)CSc1n[nH]c(N)n1 | -3.6% | 0.3% | 0.4% | 19.8% | 9.6%[46 µM] | 7.5% |
| COc1ccc(S(=O)(=O)N2CCOCC2)cc1NC(=O)CSc1n[nH]c(C(C)C)n1 | 2.1% | 0.8% | 25.1µM* | 25.1µM* | x | 28.2µM* |
| CCN(CC)c1ccc(S(=O)(=O)N2CCOCC2)cc1NC(=O)CSc1nncs1 | x | x | x | x | x | 35.5µM* |
| Cc1nc2sc(C(N)=O)c(N)c2c(-c2ccc(Br)cc2)c1C(=O)Nc1ccc(Cl)cc1 | x | u | x | x | x | -19.7%[59 µM] |

The results go on.
| canonical_smiles | KDM4E inh | miR-21 reporter | ALDH1A1 inh | Sfp inh | LMNA splice mod | G9a block |
| --- | --- | --- | --- | --- | --- | --- |
| C=Cc1c(C)c2cc3nc(cc4[nH]c(cc5nc(cc1[nH]2)C(C)=C5CCC(=O)O)c(CCC(=O)OC)c4C)[C@@]1(C)C3=CC=C(C(=O)OC)[C@H]1C(=O)OC (tested in a mixture with another compound) | -13.6%[25.5 µM] | x | 3.2%[20.9 µM] | u | u | 328.7%[12.7 µM] |
| Cc1c[nH]c(=O)n(CCCN2CCN(c3ccccc3OCC(F)(F)F)CC2)c1=O | -7.8% | x | 3.8% | -5.8% | x | x |
| Cc1noc(C)c1CSCC(=O)Nc1cc(S(=O)(=O)N2CCCCC2)ccc1OC(C)C | x | x | x | x | x | -32.1% |
| CCc1noc(C)c1C(=O)Nc1cc(S(=O)(=O)N2CCOCC2)ccc1OC(C)C | x | x | x | x | x | 12.6µM* |
| Cc1ccc(-c2nc(N/N=C/c3cccc([N+](=O)[O-])c3)c3ccccc3n2)cc1 | 3.0% | -12.0% | u | 7.8% | 5.2% | 39.8µM* |
| Cc1ccc(-c2nc(N/N=C/c3cccnc3)c3ccccc3n2)cc1 | -4.8% | -15.2% | -6.2% | -7.8% | u | -8.1% |
| COc1cccc(NC(=O)Cc2nnc(SCC(=O)c3ccccc3)n2C)c1 | 3.5% | 2.1% | 8.91µM* | u | -23.8% | 0.355µM* |
| COc1cccc(C(=O)CSc2nnc(CNS(=O)(=O)c3ccc(C)cc3)n2C)c1 | -2.5% | -1.6% | u | -9.5% | -4.2% | 3.16µM* |
